## Water solubility values, as collected for the OPERA models

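These are experimental values that the OPERA curators gathered from public databases to train and test their QSAR models. The files give a single number for a compound and property, which may rest on several reports. Method, purity and exact conditions of the single measurements are not given. The measured form (salt, isomer or mixture) is not always the one drawn. Unmarked limits or estimates from the upstream databases cannot be ruled out.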

Water solubility is log10 of mol/L, nominally at 25 °C; higher is more soluble.

water solubility (log10 mol/L) | structure (SMILES)
-3.11 | NC(=O)N(CCO)/N=C/C=C/c1ccc([N+](=O)[O-])o1
-3.244 | CC[C@H](C)C(=O)O[C@H]1C[C@H](O)C=C2C=C[C@H](C)[C@H](CC[C@@H](O)C[C@@H](O)CC(=O)O)[C@H]21
-4.46 | Cc1nn(C)c(F)c1C(O)=Nc1ccccc1C(C)CC(C)C (stereo unspecified)
-6.459 | O=C([O-])c1ccccc1N=Nc1c(O)ccc2ccccc12.O=C([O-])c1ccccc1N=Nc1c(O)ccc2ccccc12.[Ba+2]
-4.2 | Oc1ccc(Oc2ccc(Cl)cc2Cl)cc1
-3.942 | O=C1c2c(O)ccc(O)c2C(=O)c2c(NCCO)ccc(NCCO)c21
-0.886 | Cc1ncc([N+](=O)[O-])n1C
-3.323 | Cn1c(=S)c2c(ncn2C)n(C)c1=O
-1.719 | CC(=O)Nc1cccc(F)c1
-3.631 | Cc1cc(O)c(C(C)C)cc1C1(c2cc(C(C)C)c(O)cc2C)OS(=O)(=O)c2ccccc21
-2.125 | O=c1cnc2cncnc2[nH]1
-2.244 | C=C1C(=O)O[C@H]2C=C(CO)CCC=C(C)C[C@@H](OC(=O)C(C)CO)C12 (stereo not given in full)
-0.923 | CCCCCCC(N)C(=O)O (stereo unspecified)
-0.924 | CS/C(C)=N/O
-0.96 | O=C(O)CCCc1ccccc1
-1.019 | CCC(C(=O)O)C(O)c1ccccc1 (stereo unspecified)
0.096 | Cc1cnns1
-1.923 | CCCCCCCNC(=O)[C@H](O)[C@@H](O)[C@H](O)[C@H](O)CO (stereo in doubt)
-1.788 | CC1=CC(=O)[C@@H](C(C)C)CC1
-1.92 | CCCOC(=O)CCC
-1.932 | CCCCCC[C@@H](O)C/C=C\CCCCCCCC(=O)O
-1.757 | CC(C)C(SC(C(=O)O)C(C)C)C(=O)O (stereo unspecified)
-2.71 | NS(=O)(=O)c1ccc([O-])c(/N=N/c2c(S(=O)(=O)[O-])cc3cc(Nc4ccc5c([O-])c(/N=N/c6cc(S(N)(=O)=O)ccc6[O-])c(S(=O)(=O)[O-])cc5c4)ccc3c2[O-])c1.[Cu+2].[Cu+2].[Na+].[Na+]
-3.629 | Cc1cc(-c2ccccc2)nnc1NCCN1CCOCC1
-3.069 | C=C(C)C(=O)OCCC[Si](C)(C)O[Si](C)(C)CCCOC(=O)C(=C)C
-7.83 | Clc1ccc(Oc2cc(Cl)c(Cl)cc2Cl)cc1Cl
-1.582 | Cn1c(=O)c2c([nH]c(=O)n2C)n(C)c1=O
-1.367 | CC1=CC(C)=Nc2ccccc2N1
-0.334 | O=C(O)[C@@H]1CC[C@@H](C(=O)O)S1
-3.048 | Oc1nc(O)c2nc(Cl)[nH]c2n1
-1.673 | Cc1cc(=O)n(-c2ccc(S(=O)(=O)O)cc2)[nH]1
-2.04 | COC(=O)c1c(C(=O)O)ccc(OC)c1OC
-1.34 | O=Cc1ccc(O)c(O)c1
-1.667 | Cc1cc(=S)n(C)n1-c1ccccc1
-0.4 | O=C1CNC(=O)N1
-2.592 | O=C(Nc1ccc(S(=O)(=O)O)cc1)c1cc2ccccc2cc1O
-1.712 | CCC1NC(=O)C(CC)NC1=O (stereo unspecified)
-2.371 | COC(=O)c1cc(S(N)(=O)=O)ccc1SCCCO
-5.036 | Cl.Cl.O=C(O)c1ccc(-c2cnc3ncc(Cc4ccc5ncccc5c4)n3n2)cc1F
-1.639 | CC1(C(=O)O)CC(C(=O)O)C(C)(C)C1 (stereo unspecified)
-2.935 | N#Cc1ccccc1S(=O)(=O)Nc1ccccc1

The 3 lowest values of water solubility among the entries above:

| structure (SMILES) | water solubility (log10 mol/L) |
|---|---|
| Clc1ccc(Oc2cc(Cl)c(Cl)cc2Cl)cc1Cl | -7.83 |
| O=C([O-])c1ccccc1N=Nc1c(O)ccc2ccccc12.O=C([O-])c1ccccc1N=Nc1c(O)ccc2ccccc12.[Ba+2] | -6.459 |
| Cl.Cl.O=C(O)c1ccc(-c2cnc3ncc(Cc4ccc5ncccc5c4)n3n2)cc1F | -5.036 |

Data: OPERA 2.9 data sets, kmansouri/OPERA on GitHub.